Tested on: female rabbits
Assay: Embryo-fetal assessment study in female rabbits, oral administration (ICH guideline, GLP)
Conditions: female rabbits

For `CC(C)(N)CNC(=O)CC1CCC2(CC1)OOC1(O2)C2CC3CC(C2)CC1C3` (centres unmarked), the food consumption (30 mg/kg body weight/day) was “slight reduction” and the “mortality/clinical signs, changes in mean body weight and post-implantation loss” value (10 and 30 mg/kg/day) was “no mortality/clinical signs, changes in mean body weight and post-implantation loss”.

Reference: patent publication US20090306091A1, “ANTIMALARIAL THERAPY USING A COMBINATION OF SYNTHETIC ARTEMISININ DERIVATIVE AND BISQUINOLINE DERIVATIVE” (priority 2006, published 2009)
